From PubChem
Sampled rows, rich in hits. Any-hit rate of the full collection: about 2.3%.
miR-21 reporter: raises the signal of a miR-21 reporter | HeLa miR-21 FLuc reporter, luciferase, 48 h | Potency, µM (highest dose often 38.3 µM), inactives show at the highest dose reporter change, positive = more light | 340,000 tested, under 10 active | AID 2288; active = well fitted rising curve with a large enough effect; inconclusive = small, poorly fitted or top-dose-only effect; inactive = no such curve, though single readings can be large or run the other way;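 note: % of control where 0% means no effect; miR-21 action dims this reporter so a rising signal means less miR-21 action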
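Luminescence from a firefly luciferase reporter carrying a miR-21 binding site downstream, stably expressed under a CMV promoter in HeLa cells that make miR-21 endogenously, reports miRNA modulation after 48 h compound exposure up to approximately 40uM final.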
A549 tox: A549 cytotoxicity, counter-screen for Nrf2 inhibitors; A549 ARE-Fluc cells, CellTiter-Fluor viability, 18-24 h; Potency, µM (highest dose often 46 µM), for inactives: at the top dose activity change, negative = cytotoxicity, usual class: inhibitors; 390,000 compounds, 0.16% hits; AID 504648; further: potency means the concentration at half of the fitted maximal effect; on the % scale 0 is the no-effect control and ±100 the full control effect
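A549 ARE_Fluc cells in 5% FBS OPTI-MEM were exposed to compounds in concentration-response for 18-24 h at 37 deg C. Viability was read by CellTiter-Fluor fluorescence (Ex 405/Em 525) after 30 min, before the luciferase read.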
GRP78 ERSR act: ER stress response induction in glioma. U87-MG GRP78 promoter luciferase reporter, 16 h. 420,000 compounds, 0.02% hits. AID 602332. Potency, µM, for inactives: at the top dose activation, hits mostly activators; further: potency means the concentration at half of the fitted maximal effect; series mostly up to about 76 µM; % of control where 0% means no effect; nearly all actives have a fitted effect of over 35% in size
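ERSR induction read as luciferase luminescence (Bright-Glo, 10 min at room temperature) in stably transfected human U87-MG glioma cells exposed to compounds for 16 h, using GRP78 as sensor.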
Nrf2 activator: activates Nrf2 signaling; AREc32 ARE-luciferase reporter (MCF7-derived line), luminescence, 24 h; Potency, µM (titrated, usually from 46.1 µM), inactives show at the top dose activation, actives largely listed as activators; 410,000 compounds, 0.31% hits; AID 624171; further: potency means the concentration at half of the fitted maximal effect; % of control where 0% means no effect; nearly all actives have a fitted effect of over 65% in size
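ARE-driven firefly luciferase activity in AREc32 cells measured after a 24 hr compound exposure at 37 deg C, using Steady-Glo reagent and a 30 min room-temperature hold.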
Mito fusion yeast: mitochondrial division inhibition or fusion activation | 320,000 compounds, 0.23% hits | AID 485298 | S. cerevisiae fusion-defective mutant growth rescue, CellTiterGlo 48 h | Potency, µM (titrated, usually from 46.1 µM), for inactives: top-dose growth rescue (activation), hits mostly activators; further: potency means the concentration at half of the fitted maximal effect; % of control where 0% means no effect; nearly all actives have a fitted effect of over 45% in size
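Compounds are tested for their ability to restore growth of mitochondrial fusion-defective yeast strains at non-permissive 37C in YPEG medium over 48 hours. Viability is quantified by luciferase luminescence.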
Nrf2 block: Nrf2 pathway inhibition | A549 ARE-Fluc reporter, luciferase luminescence, 18-24 h | Potency, µM (series often up to 46 µM), for inactives: at the top dose activity change, negative = inhibition, actives largely listed as inhibitors | 360,000 compounds, 2.1% hits | AID 504444; further: potency means the concentration at half of the fitted maximal effect; on the % scale 0 is the no-effect control and ±100 the full control effect; nearly all actives have a fitted effect of over 60% in size
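A549 ARE_Fluc cells (5000/well, 5% FBS OPTI-MEM) pre-incubated 2 h, then treated with compounds 18-24 h at 37C/5% CO2 in concentration-response. CellTiter-Fluor viability read first; BugLite luciferase luminescence after 15 min at room temperature gives Nrf2 activity.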
An asterisk follows results filed as active. Unless noted, the call rests on the fitted dose curve; in most records, active means well fitted curve in the direction sought with a large enough effect; inconclusive means small, poorly fitted or top-dose-only effect, or another doubt; inactive means no such curve, though single readings can be large; an effect the other way counts as inactive or inconclusive.

What do the screens show for `CCn1c(/C=C/c2ccccc2C)nc2ccccc2c1=O`?
miR-21 reporter: -38.3%; A549 tox: 5.7%; GRP78 ERSR act: 1.2%; Nrf2 activator: 26.5%; Mito fusion yeast: 2.0%; Nrf2 block: 5.4%

What do the screens show for `O=c1c2ccccc2nc(/C=C/c2ccc([N+](=O)[O-])o2)n1CCCO`?
miR-21 reporter: inconclusive; A549 tox: 23.1µM*; GRP78 ERSR act: -18.6%; Nrf2 activator: -0.7%; Mito fusion yeast: -19.6%; Nrf2 block: 20.6µM*

How did CCn1c(/C=C/c2ccccc2F)nc2ccccc2c1=O do in these assays?
miR-21 reporter: -7.8%; A549 tox: -0.3%; GRP78 ERSR act: 1.0%; Nrf2 activator: 2.82µM*; Mito fusion yeast: 0.3%; Nrf2 block: 3.8%

What do the screens show for `O=c1c2ccccc2nc(/C=C/c2cccc(Br)c2)n1CCCO`?
miR-21 reporter: 11.9%; A549 tox: 8.7%; GRP78 ERSR act: -4.8%; Nrf2 activator: inconclusive; Mito fusion yeast: 11.2µM*; Nrf2 block: 2.8%

Results for O=c1c2ccccc2nc(/C=C/c2ccc([N+](=O)[O-])cc2)n1CCCO ?
miR-21 reporter: -1.0%; A549 tox: -9.3%; GRP78 ERSR act: -1.4%; Nrf2 activator: 12.9%; Mito fusion yeast: inconclusive; Nrf2 block: 13.6%

How did O=c1c2ccccc2nc(/C=C/c2ccc(Br)cc2)n1CCCO do in these assays?
miR-21 reporter: -11.4%; A549 tox: 0.3%; GRP78 ERSR act: 4.7%; Nrf2 activator: 16.4%; Mito fusion yeast: inconclusive; Nrf2 block: -0.8%

How did COc1ccc(Nc2nc(-c3cccc(OC)c3O)nc3ccccc23)cc1 do in these assays?
miR-21 reporter: 0.9%; A549 tox: -16.2%; GRP78 ERSR act: 5.4%; Nrf2 activator: 2.5%; Mito fusion yeast: 18.4%; Nrf2 block: inconclusive

Results for O=C(c1ccc2c(=O)n(-c3ccccc3)c(=S)[nH]c2c1)N1CCCCC1 ?
miR-21 reporter: 17.3%; A549 tox: -3.1%; GRP78 ERSR act: -4.0%; Nrf2 activator: -0.5%; Mito fusion yeast: -0.7%; Nrf2 block: 7.31µM*

Results for O=C(c1ccc2c(=O)n(-c3ccccc3)c(=S)[nH]c2c1)N1CCN(c2ccccc2)CC1 ?
A549 tox: -18.1%; GRP78 ERSR act: -4.4%; Nrf2 activator: 0.0%; Mito fusion yeast: -7.5%; Nrf2 block: inconclusive

How did CC1CCCN(C(=O)c2ccc3c(=O)n(C4CCCC4)c(=S)[nH]c3c2)C1 (stereo not drawn) do in these assays?
miR-21 reporter: 3.5%; A549 tox: -7.5%; GRP78 ERSR act: -0.7%; Nrf2 activator: -0.2%; Mito fusion yeast: -15.6%; Nrf2 block: inconclusive

Results for O=C(c1ccc2c(=O)n(C3CCCC3)c(=S)[nH]c2c1)N1CCCCCC1 ?
miR-21 reporter: 25.0%; A549 tox: -21.5%; GRP78 ERSR act: -2.3%; Nrf2 activator: -1.4%; Mito fusion yeast: -2.0%; Nrf2 block: 16.4µM*

Results for O=C1CN(S(=O)(=O)c2ccc(Cl)cc2)c2ccccc2N1 ?
miR-21 reporter: 1.9%; A549 tox: 0.2%; GRP78 ERSR act: -4.8%; Nrf2 activator: 0.3%; Mito fusion yeast: 5.7%; Nrf2 block: -6.6%

Results for O=C(O)c1ccc2c(c1)CCCN2 ?
miR-21 reporter: -5.8%; A549 tox: -5.3%; GRP78 ERSR act: -2.8%; Nrf2 activator: -0.8%; Mito fusion yeast: 0.9%; Nrf2 block: -0.2%

How did O=C(NC(=O)c1cccc(F)c1)Nc1ccc(-c2cc(C(F)(F)F)nn2-c2ccccc2)cc1 do in these assays?
miR-21 reporter: -1.4%; A549 tox: 4.6%; Nrf2 activator: 0.5%; Nrf2 block: -12.8%

What do the screens show for `O=C(Nc1ccc(-c2cc(C(F)(F)F)nn2-c2ccccc2)cc1)c1cccc(F)c1`?
miR-21 reporter: inconclusive; A549 tox: inconclusive; Nrf2 activator: -0.4%; Nrf2 block: 13µM*

What do the screens show for `CCN(CC)CCNC(=O)c1cc(-c2cccnc2)nc2ccc(S(=O)(=O)N3CCC(C)CC3)cc12`?
miR-21 reporter: -2.5%; A549 tox: 23.1µM*; GRP78 ERSR act: -2.3%; Nrf2 activator: -0.6%; Mito fusion yeast: 1.6%; Nrf2 block: inconclusive

What do the screens show for `COc1cc(C2C(C#N)=C(N)N(Nc3ccccc3)C3=C2C(=O)CC(C)(C)C3)ccc1OCc1ccccc1` (stereo not drawn)?
miR-21 reporter: 22.2%; A549 tox: inconclusive; GRP78 ERSR act: -3.3%; Nrf2 activator: 3.0%; Mito fusion yeast: 3.0%; Nrf2 block: 23.1µM*

What do the screens show for `COc1cc(C2C(C#N)=C(N)N(Nc3ccccc3)C3=C2C(=O)CC(C)(C)C3)ccc1OCc1cccc(F)c1` (stereo not drawn)?
miR-21 reporter: inconclusive; A549 tox: inconclusive; GRP78 ERSR act: -2.3%; Nrf2 activator: 1.9%; Mito fusion yeast: 0.5%; Nrf2 block: inconclusive

How did CN(C)CCCn1c2c(c(SCC(=O)Nc3ccc4c(c3)OCCO4)nc1=O)CCCC2 do in these assays?
GRP78 ERSR act: -5.2%; Nrf2 activator: -0.4%

What do the screens show for `CCCNC(=S)N1CCN(C(c2ccccc2)c2ccccc2)CC1`?
miR-21 reporter: -0.3%; A549 tox: -1.6%; GRP78 ERSR act: -1.8%; Nrf2 activator: 0.4%; Mito fusion yeast: inconclusive; Nrf2 block: -5.8%

Results for CCCCNC(=S)N1CCN(C(c2ccccc2)c2ccccc2)CC1 ?
miR-21 reporter: inconclusive; A549 tox: -19.1%; GRP78 ERSR act: -1.7%; Nrf2 activator: 2.5%; Mito fusion yeast: inconclusive; Nrf2 block: -21.4%

Results for CCNC(=S)N1CCN(C(c2ccccc2)c2ccccc2)CC1 ?
miR-21 reporter: -0.3%; A549 tox: -12.4%; GRP78 ERSR act: -2.6%; Nrf2 activator: -0.3%; Mito fusion yeast: 23.6%; Nrf2 block: 25.9µM*

Results for CCCCNC(=O)N1CCN(C(c2ccccc2)c2ccccc2)CC1 ?
miR-21 reporter: 0.8%; A549 tox: -2.4%; GRP78 ERSR act: -6.5%; Nrf2 activator: 2.9%; Mito fusion yeast: 17.8µM*; Nrf2 block: -6.0%

Results for CC(=O)c1cccc(Nc2nc(-c3sc(C)nc3C)cs2)c1 ?
miR-21 reporter: 8.8%; A549 tox: -16.0%; GRP78 ERSR act: 1.2%; Nrf2 activator: 5.7%; Mito fusion yeast: 6.4%; Nrf2 block: 23.1µM*

How did COc1ccc(C(C#N)=C2C=C(Cl)C(=NO)C=C2Cl)cc1 do in these assays?
GRP78 ERSR act: 0.2%; Nrf2 activator: 11.2µM*

How did O=C(Cn1ccc([N+](=O)[O-])n1)N1CCc2ccccc21 do in these assays?
miR-21 reporter: 3.8%; A549 tox: -2.2%; GRP78 ERSR act: -1.4%; Nrf2 activator: 0.0%; Mito fusion yeast: 5.8%; Nrf2 block: 1.3%

Arranged by heavy-atom count (descending): part of the list above.
Results for CCCCNC(=S)N1CCN(C(c2ccccc2)c2ccccc2)CC1 ?
miR-21 reporter: inconclusive; A549 tox: -19.1%; GRP78 ERSR act: -1.7%; Nrf2 activator: 2.5%; Mito fusion yeast: inconclusive; Nrf2 block: -21.4%

Results for CCNC(=S)N1CCN(C(c2ccccc2)c2ccccc2)CC1 ?
miR-21 reporter: -0.3%; A549 tox: -12.4%; GRP78 ERSR act: -2.6%; Nrf2 activator: -0.3%; Mito fusion yeast: 23.6%; Nrf2 block: 25.9µM*

How did COc1ccc(C(C#N)=C2C=C(Cl)C(=NO)C=C2Cl)cc1 do in these assays?
GRP78 ERSR act: 0.2%; Nrf2 activator: 11.2µM*
